The numbers were not newly measured in US20240226024A1 (Empros Pharma AB, priority 2021, published 2024), which cites them from elsewhere.

For the series the following is noted: oral administration.

The structures appear in SMILES notation.

With `C[C@H]1O[C@H](O[C@H]2[C@H](O)[C@@H](O)[C@@H](O[C@H]3[C@H](O)[C@@H](O)C(O)O[C@@H]3CO)O[C@@H]2CO)[C@H](O)[C@@H](O)[C@@H]1N[C@H]1C=C(CO)[C@@H](O)[C@H](O)[C@H]1O` (stereo partly drawn) [acarbose, O-4,6-Dideoxy-4-[[(1S,4R,5S,6S)-4,5,6-trihydroxy-3-(hydroxymethyl)cyclohex-2-enyl]amino]-α-D-glucopyranosyl-(1→4)-O-α-D-gluco-pyranosyl-(1→4)-D-glucopyranose], the “Fraction of the dose absorbed” value was “less than 5%”.
